{"source": "paper PMC11272584", "about": "(Nature Metabolism, 2024)", "key": {"GIPR G144S": {"target": "T1, GIPR G144S (Homo sapiens, UniProt P48546, G144S)", "T1 construct": "host or cells: HEK293", "assay": "cAMP accumulation", "assay_type": "cell-based"}, "GIPR S382Y": {"target": "T2, GIPR S382Y (Homo sapiens, UniProt P48546, S382Y)", "T2 construct": "host or cells: HEK293", "assay": "cAMP accumulation", "assay_type": "cell-based"}, "GIPR E288G": {"target": "T3, GIPR E288G (Homo sapiens, UniProt P48546, E288G)", "T3 sequence (P48546 22-466 E288G)": "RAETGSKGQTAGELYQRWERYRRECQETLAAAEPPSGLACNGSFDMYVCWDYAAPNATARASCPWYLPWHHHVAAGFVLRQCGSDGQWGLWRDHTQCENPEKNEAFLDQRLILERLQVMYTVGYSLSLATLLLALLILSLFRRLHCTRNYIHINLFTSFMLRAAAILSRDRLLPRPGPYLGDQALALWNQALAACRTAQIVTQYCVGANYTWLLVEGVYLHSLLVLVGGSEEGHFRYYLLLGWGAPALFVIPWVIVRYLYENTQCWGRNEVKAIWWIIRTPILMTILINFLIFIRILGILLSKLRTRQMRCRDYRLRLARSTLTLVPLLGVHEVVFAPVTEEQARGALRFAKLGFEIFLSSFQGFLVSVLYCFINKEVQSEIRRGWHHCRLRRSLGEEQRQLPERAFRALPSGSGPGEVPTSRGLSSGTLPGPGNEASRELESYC", "settings": "GIPR E288G (ECL2), mean, n = 5, duplicate"}, "GIPR E418K": {"target": "T4, GIPR E418K (Homo sapiens, UniProt P48546, E418K)", "T4 sequence (P48546 22-466 E418K)": "T3 sequence (P48546 22-466 E288G) with G267E, E397K", "settings": "GIPR E418K (ICD), mean, n = 3, duplicate"}, "GIPR E463Q": {"target": "T5, GIPR E463Q (Homo sapiens, UniProt P48546, E463Q)", "T5 sequence (P48546 22-466 E463Q)": "T3 sequence (P48546 22-466 E288G) with G267E, E442Q", "settings": "GIPR E463Q (ICD), mean, n = 3, duplicate"}, "GIPR H166Y": {"target": "T6, GIPR H166Y (Homo sapiens, UniProt P48546, H166Y)", "T6 sequence (P48546 22-466 H166Y)": "T3 sequence (P48546 22-466 E288G) with H145Y, G267E", "settings": "HEK293A, 1 µM GIP minus vehicle, n = 4, P = 0.0248"}, "GIPR M67R": {"target": "T7, GIPR M67R (Homo sapiens, UniProt P48546, M67R)", "T7 sequence (P48546 22-466 M67R)": "T3 sequence (P48546 22-466 E288G) with M46R, G267E", "assay": "cAMP accumulation", "assay_type": "cell-based", "parameters": "host or cells: HEK293"}}, "note": "Positions count from the first letter of the chain named.", "data": [{"substance": "glucose-dependent insulinotropic polypeptide [GIP]", "values": [{"measurement": "cAMP (Emax)", "setting": "GIPR G144S; HEK293, GIP(1–42) 1 pM–100 nM, 30 min 37 °C, mean of n = 3", "value": "130 % of WT GIPR activity"}, {"measurement": "logEC50 (cAMP)", "setting": "GIPR G144S; HEK293, Hill slope 1.0, mean of n = 3", "value": -9.2}, {"measurement": "cAMP (Emax)", "setting": "GIPR S382Y; HEK293, GIP(1–42) 1 pM–100 nM, 30 min 37 °C, mean of n = 6", "value": "43 % of WT GIPR activity"}, {"measurement": "logEC50 (cAMP)", "setting": "GIPR S382Y; HEK293, Hill slope 1.0, mean of n = 6", "value": -6.6}, {"measurement": "logEC50 (Arrestin)", "setting": "GIPR E288G; Hill slope 1.0", "value": -9.1}, {"measurement": "Arrestin (Emax)", "setting": "GIPR E288G; normalized to WT GIPR", "value": 9}, {"measurement": "logEC50 (Arrestin)", "setting": "GIPR E418K; Hill slope 1.0", "value": -9.2}, {"measurement": "Arrestin (Emax)", "setting": "GIPR E418K; normalized to WT GIPR", "value": 91}, {"measurement": "logEC50 (Arrestin)", "setting": "GIPR E463Q; Hill slope 1.0", "value": -9.1}, {"measurement": "Arrestin (Emax)", "setting": "GIPR E463Q; normalized to WT GIPR", "value": 49}, {"measurement": "Mean of ΔBRET", "setting": "GIPR H166Y", "value": 0.0316}, {"measurement": "cAMP (Emax)", "setting": "GIPR M67R; HEK293, GIP(1–42) 1 pM–100 nM, 30 min 37 °C, mean of n = 4", "value": "18 % of WT GIPR activity"}, {"measurement": "logEC50 (cAMP)", "setting": "GIPR M67R; HEK293, Hill slope 1.0, mean of n = 4", "value": -10.4}]}]}
